Molecules are shown by their SMILES.

Sequences of proteins named here, by UniProt entry; tags and fusion partners are left off.
UniProt Q9H228, whole entry: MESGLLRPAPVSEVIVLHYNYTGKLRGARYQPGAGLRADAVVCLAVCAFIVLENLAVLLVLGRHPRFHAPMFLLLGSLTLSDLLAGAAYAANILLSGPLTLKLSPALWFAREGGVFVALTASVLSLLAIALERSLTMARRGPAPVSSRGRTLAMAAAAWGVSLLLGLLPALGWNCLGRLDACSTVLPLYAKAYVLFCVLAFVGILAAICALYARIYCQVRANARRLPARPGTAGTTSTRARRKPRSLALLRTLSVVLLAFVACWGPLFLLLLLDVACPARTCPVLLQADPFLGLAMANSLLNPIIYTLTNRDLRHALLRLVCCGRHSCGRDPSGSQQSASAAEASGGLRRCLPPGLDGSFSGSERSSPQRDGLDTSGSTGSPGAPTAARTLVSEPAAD
UniProt O95977, whole entry: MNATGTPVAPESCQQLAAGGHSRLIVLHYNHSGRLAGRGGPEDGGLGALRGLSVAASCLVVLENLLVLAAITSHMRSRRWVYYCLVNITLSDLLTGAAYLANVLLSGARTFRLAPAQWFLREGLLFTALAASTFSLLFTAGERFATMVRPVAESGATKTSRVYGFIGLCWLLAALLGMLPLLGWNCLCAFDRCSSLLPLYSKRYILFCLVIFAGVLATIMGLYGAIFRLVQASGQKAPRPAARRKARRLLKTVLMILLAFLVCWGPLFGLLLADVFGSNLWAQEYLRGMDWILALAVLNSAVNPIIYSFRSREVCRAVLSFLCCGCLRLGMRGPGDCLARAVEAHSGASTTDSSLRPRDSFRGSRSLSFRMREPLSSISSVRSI
UniProt Q99500, whole entry: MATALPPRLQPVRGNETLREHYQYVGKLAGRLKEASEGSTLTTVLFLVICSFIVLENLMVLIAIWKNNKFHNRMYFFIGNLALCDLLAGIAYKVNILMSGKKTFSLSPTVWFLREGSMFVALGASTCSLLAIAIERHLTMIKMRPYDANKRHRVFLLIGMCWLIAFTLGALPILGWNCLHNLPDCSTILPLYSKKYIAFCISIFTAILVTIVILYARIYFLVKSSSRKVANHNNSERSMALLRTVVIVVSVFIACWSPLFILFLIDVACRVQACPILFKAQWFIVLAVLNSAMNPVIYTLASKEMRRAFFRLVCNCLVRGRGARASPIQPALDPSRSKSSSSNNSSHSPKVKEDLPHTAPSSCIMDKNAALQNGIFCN
UniProt P21453, whole entry: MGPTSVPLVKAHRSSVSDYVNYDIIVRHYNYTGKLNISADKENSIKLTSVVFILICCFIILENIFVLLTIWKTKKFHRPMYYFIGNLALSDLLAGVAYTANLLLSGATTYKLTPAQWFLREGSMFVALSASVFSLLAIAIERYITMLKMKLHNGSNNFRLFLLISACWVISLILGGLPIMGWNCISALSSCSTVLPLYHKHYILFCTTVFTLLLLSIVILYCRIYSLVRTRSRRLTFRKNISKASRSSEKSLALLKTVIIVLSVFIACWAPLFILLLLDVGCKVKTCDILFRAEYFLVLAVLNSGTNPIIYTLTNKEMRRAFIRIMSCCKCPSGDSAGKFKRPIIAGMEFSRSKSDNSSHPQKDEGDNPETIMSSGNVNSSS

Assay type in all cases: cell-based
In one test the target is human S1PR5 (Homo sapiens, UniProt Q9H228). As to the kind of experiment: Intracellular Ca2+ release (FLIPR) agonist potency, S1P5. The note with it: read-out: S1P5 EC50 range; recombinant CHO-K1 cells expressing human S1PR5, aequorin, Gq/i5; Calcium 5 FLIPR.
In the next test the target is human S1PR4 (Homo sapiens, UniProt O95977). The test is described as follows: Intracellular Ca2+ release (FLIPR) agonist potency, S1P4. Particulars: read-out: S1P4 EC50; recombinant CHO-K1 cells expressing human S1PR4, aequorin, Gq/i5; Calcium 5 FLIPR.
The target of the next test is human S1PR3 (Homo sapiens, UniProt Q99500). The test is described as follows: Intracellular Ca2+ release (FLIPR) agonist potency, S1P3. Particulars: read-out: S1P3 EC50; recombinant CHO-K1 cells expressing human S1PR3, aequorin, Gq/i5; Calcium 5 FLIPR.
A further test concerns the target human S1PR1 (Homo sapiens, UniProt P21453). The test is described as follows: Intracellular Ca2+ release (FLIPR) agonist potency, S1P1. Particulars: read-out: S1P1 EC50; recombinant CHO-K1 cells expressing human S1PR1, aequorin, Gq/i5; Calcium 5 FLIPR.

Turning to `CCc1cccc(Cl)c1COc1ccc2c(c1)CCC(N1CC(C(=O)NOC)C1)C2` (stereo not shown), the EC50 was 10 to 100 nM at human S1PR5, > 1000 nM on human S1PR4, > 1000 nM at human S1PR3 and > 1000 nM on human S1PR1.
Consider `Cc1ccc(C(F)(F)F)c(COc2ccc3c(c2)CCC(OCCC(=O)O)C3)c1` (stereo not shown), for which the EC50 was 1000 to 10000 nM on human S1PR5, > 1000 nM on human S1PR4 and > 1000 nM at human S1PR1.
For the molecule `O=C(O)CC1CN(C2COCc3cc(OCc4c(Cl)cccc4Cl)ccc32)C1` (stereo not shown), the EC50 was 100 to 1000 nM on human S1PR5, > 1000 nM on human S1PR4 and > 1000 nM at human S1PR1.

The values are drawn from patent US10280159B2 (AbbVie Deutschland GmbH & Co. KG, priority 2015, dated 2019).
